We go through one molecule from patent US8030341B2, “Dmt-derivative compounds and related compositions and methods of use” (priority 2005, dated 2011).

Amino acid sequences for entries named in this document (tags omitted). A change or cut given only in a name is not applied to a line headed by its entry.
UniProt P32300, whole entry: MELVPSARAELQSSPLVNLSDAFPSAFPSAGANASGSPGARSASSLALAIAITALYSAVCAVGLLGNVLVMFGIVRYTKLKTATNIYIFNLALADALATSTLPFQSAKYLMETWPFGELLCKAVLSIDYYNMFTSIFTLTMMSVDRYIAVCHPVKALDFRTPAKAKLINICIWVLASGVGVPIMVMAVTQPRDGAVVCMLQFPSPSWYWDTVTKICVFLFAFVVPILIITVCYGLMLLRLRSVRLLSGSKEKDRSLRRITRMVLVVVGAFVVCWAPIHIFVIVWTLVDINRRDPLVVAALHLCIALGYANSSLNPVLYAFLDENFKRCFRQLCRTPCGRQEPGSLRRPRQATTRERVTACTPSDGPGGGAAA

This test concerns the target T1, δ-opioid receptor (Mus musculus, UniProt P32300).
T1 construct: from tissue; host or cells: isolated mouse vas deferens
The test can be described thus: mouse vas deferens (MVD) bioassay. The format is cell-based. The following applies: Table 2; versus deltorphin II as agonist. An excerpt: Bioorg. Med. Chem., 11: 675-678 (2003). The isolated tissues were suspended in organ baths containing balanced salt solutions in a physiological buffer, pH 7.5. […]

Regarding `Cc1cc(O)cc(C)c1C[C@H](N)C(=O)N1Cc2ccccc2C[C@H]1C(=O)O` [H-Dmt-Tic-OH, reference compound], the “MVD Antagonist pA2” value worked out at 8.48.
